# Rango dissoc inh: prevents RanGTP from dissociating the Rango-importin beta complex. AID 540253. Potency, µM (doses to about 46.1 µM), for inactives: at the top dose activity change, negative = inhibition. Biochemical FRET Rango-importin beta, RanGTP-induced dissociation. hit rate 0.071% among 340,000; note: potency is the fitted concentration of half-maximal effect; % of control where 0% means no effect; nearly all actives have a fitted effect of over 45% in size
#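 Rango FRET biosensor (snurportin-1 IBB flanked by N-terminal EYFP and C-terminal CFP10) at 0.1 uM, with 0.25 uM importin beta in PBS, 1mM DTT, 0.02% Tween-20, 0.1% BSA. 0.6 uM Ran, 2mM GTP and 0.2 uM RCC1 were then added for 45 min at room temperature. Inhibition read as loss of FRET rise.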
# D3 ag: activates the human D3 dopamine receptor. P35462. AID 652048. hit rate 0.58% among 410,000. max activation, %. D3R DiscoveRx beta-arrestin cells, luminescence, 90 min; in the data active = max activation above about 30%; note: 0% is about no effect
#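 Cells at 1500/well, incubated overnight, then treated with pinned compounds (dopamine as control) for 90 min at 37 degrees C. DiscoveRx reagent added for 30 - 60 minutes at room temperature; luminescence read.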
# TSG101-PTAP inh: blocks PTAP/TSG101 interaction to inhibit HIV-1 budding | 340,000 tested, under 10 active | Fluorescence polarization, FITC-PTAP peptide / Tsg101 binding | Potency, µM (series often up to 115 µM), for the others: top-dose activity change, negative = inhibition, most hits filed as inhibitors; active = well fitted inhibition curve with a large enough effect in the main read-out, with a control signal flat, not every such curve was filed as active; inconclusive = small, poorly fitted or top-dose-only effect, or effect the other way, or a change in a side signal; inactive = no such curve, though single readings can be large or run the other way; note: potency is the fitted concentration of half-maximal effect; % of control where 0% means no effect
#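 Fluorescence anisotropy tracks displacement of a FITC-tagged PTAP peptide (50 nM) from the Tsg101 binding domain (10 uM), following a 20 min room-temperature incubation at pH 7.5.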
# Mm-Cpn inhibitor: blocks the Methanococcus maripaludis chaperonin Mm-Cpn; purified Mm-Cpn ATPase, ADP Transcreener TR-FRET; Potency, µM (doses to about 76.9 µM), without a hit: top-dose activity, negative = inhibition, usual class: inhibitors; hit rate 0.031% among 330,000; AID 504842; active = well fitted inhibition curve with a large enough effect; inconclusive = small, poorly fitted or top-dose-only effect; note: potency is the fitted concentration of half-maximal effect; % is set by controls: 0 for no effect and ±100 for the full control effect; nearly all actives have a fitted effect of over 80% in size
#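 Purified archaeal chaperonin (25 nM final) was preincubated with compound for 10 min at 37°C, then ATP (10 uM final) was added for 30 min at 37°C in Tris pH 7.4/KCl/MgCl2/DTT buffer. ADP was quantified by HTRF Transcreener TR-FRET.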
# D3 antag: antagonists of human D3 dopamine receptor | D3R cells, DiscoveRx beta-arrestin luminescence, antagonist mode; hits give low values | AID 652054 | hit rate 2.5% among 360,000 | max response, negative = inhibition, % | P35462; in the data active = max response below about -50%; inconclusive = no clear call, values can overlap the other calls; note: % is set by controls: 0 for no effect and ±100 for the full control effect
#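 Cells expressing the human receptor were seeded at 1500 cells/well, incubated overnight at 37 degrees C in 5% CO2, then exposed to library compounds with dopamine controls for 90 minutes at 37 degrees C before luminescent detection.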
# Rango-impB inh: inhibitors of Rango-importin beta complex formation | Rango CFP/YFP FRET sensor + importin beta, 45 min | Potency, µM (doses to about 92.2 µM), for inactives: at the highest dose inhibition of complex formation | Q14974 | hit rate 0.031% among 340,000;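 note: potency is the fitted concentration of half-maximal effect; 0% = DMSO wells and 100% = buffer wells lacking importin beta; nearly all actives have a fitted effect of over 15% in size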
#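 FRET biosensor Rango (snurportin 1 IBB between N-terminal EYFP and C-terminal Cerulean), 50 nM in PBS/1 mM DTT/0.02% Tween-20/0.1% BSA, preincubated 5 min RT with compound; 0.125 microM importin beta added, 45 min RT, CFP/YFP FRET ratio read.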
# * = called active by the depositor; ? = inconclusive; / = not tested or not shown. The list is not random: actives were taken first. Their share in the collection is about 2.9%. Unless noted, calls come from the whole dose curve.
nr	Molecule	Rango dissoc inh	D3 ag	TSG101-PTAP inh	Mm-Cpn inhibitor	D3 antag	Rango-impB inh
1	CCN(CC)CCOC(=O)C1(c2ccccc2)CCCC1	-5.1%	-20.1	-6.0%	-0.7%	-18.9	0.6%
2	O=C(OCCCN1CCCC1)C1(c2ccccc2)CCCC1	5.2%	-1.1	-2.1%	0.9%	-54.2*	-1.8%
3	O=S(=O)(NCCC1=CCCCC1)c1c(Cl)cccc1Cl	4.0%	3.4	-1.8%	0.4%	-9.2	?
4	O=C(CSCC(=O)Nc1ccccc1)N/N=C/c1c(O)ccc2ccccc12	?	1.6	1.7%	4.1%	-19.9	?
5	Nc1cc(Cl)nc(N/N=C/c2c(O)ccc3ccccc23)n1	15.2%	-0.3	-2.9%	-0.5%	-146.3*	?
6	O=C(N/N=C/c1c(O)ccc2ccccc12)Nc1ccccc1	?	-15.0	5.5%	/	-57.2*	65.1µM*
7	COCCNC(=O)Cn1ncc2c(C)n(Cc3ccc(C)cc3)c(C)c2c1=O	/	8.4	/	/	/	/
8	Cc1ccc(-c2cn3nc(N4CCCC(C(=O)Nc5ccc(F)cc5)C4)sc3n2)cc1 (stereo not given)	/	-0.7	/	/	/	/
9	O=C(N/N=C/c1cc(Cl)cc([N+](=O)[O-])c1O)c1cc(-c2ccccn2)nc2ccccc12	9.7%	-20.3	-9.9%	1.4%	-61.5*	-0.4%
10	O=[N+]([O-])c1cc(Cl)cc(/C=N\Nc2ccccn2)c1O	1.1%	-34.1	-3.2%	?	-106.2*	3.6%
11	COc1cccc(/C=N/NC(=O)c2cc(-c3ccccn3)nc3ccccc23)c1O	-27.3%	2.5	0.0%	-3.0%	5.1	?
12	COc1cc(NC(=O)CC(C)S(=O)(=O)c2cc3c4c(c2)CCN4C(=O)CC3)cc(OC)c1 (stereo not given)	/	-2.2	/	/	/	/
13	Cc1sc2nc(C)n(/N=C/c3ccccc3O)c(=O)c2c1C	?	35.0*	-1.2%	0.1%	41.0	?
14	Cc1sc2nc(C)n(/N=C/c3ccc(O)cc3O)c(=O)c2c1C	-14.3%	0.9	0.0%	-0.4%	20.5	-0.3%
15	COc1cc(C(=O)N(Cc2cccnc2)c2nc3cc(C)c(C)cc3s2)cc(OC)c1OC	/	-16.1	/	/	/	/
16	Cc1nc(NC(=O)c2ccc(Br)s2)sc1C(=O)N(C)C	1.8%	2.6	/	-7.5%	-68.8*	0.1%
17	COc1ccc(-n2nc(C(=O)N(C)c3cccc(C(F)(F)F)c3)c3c4ccccc4n(C)c3c2=O)cc1	/	2.9	/	/	/	/
18	CCOC(=O)c1c(CN2CCCCC2)oc2ccc(OC)cc12	0.5%	-20.6	-4.4%	-0.3%	?	4.1%
19	CCOC(=O)c1c(CN2CCN(C)CC2)oc2ccc(OC)cc12	-5.0%	-13.8	-6.1%	-2.0%	-56.5*	2.4%
20	Cc1cccc(NC(=O)COc2cccc3c(=O)n(C)ccc23)c1C	/	21.9	/	/	/	/
21	O=C(N/N=C/c1ccccn1)c1[nH]c2ccc([N+](=O)[O-])cc2c1-c1ccccc1	6.0%	-8.2	-0.7%	2.3%	-60.0*	-1.6%
22	O=C(N/N=C/c1ccccc1)c1[nH]c2ccc(Br)cc2c1-c1ccccc1	0.0%	-18.8	0.4%	-2.1%	-89.0*	0.6%
23	O=[N+]([O-])c1ccc(Cl)cc1CN1CCCCCC1	0.1%	-12.8	-3.6%	-0.8%	-3.6	0.2%
24	Clc1ccc2scc(CN3CCCCC3)c2c1	-16.8%	-57.8	-7.9%	-0.3%	-87.7*	3.6%
25	O=C1C2ON(c3ccccc3)C(c3cccnc3)C2C(=O)N1c1ccc(Cl)c(Cl)c1 (stereo not given)	0.1%	46.9*	-4.8%	-1.8%	30.5	0.3%
26	Cc1nn(C2CCS(=O)(=O)C2)c(C)c1CN(C)C(=O)c1ccc(F)cc1 (stereo not given)	/	-0.3	/	/	-21.5	/
27	O=C(O)c1ccc(S(=O)(=O)NC2CCCCC2)cc1	-1.3%	-0.2	-6.2%	-0.6%	-59.4*	1.7%
28	CCCCSc1nnc2c(n1)OC(c1ccc(Br)s1)N(C(C)=O)c1ccccc1-2 (stereo not given)	/	4.3	/	/	/	/
29	COc1ccc(S(=O)(=O)n2nc(-c3cc(OC)c(OC)c(OC)c3)cc2N)cc1OC	-9.7%	0.1	-2.1%	4.7%	24.2	0.3%
30	COc1ccc(-c2cc(N)n(S(=O)(=O)c3c(F)c(F)c(F)c(F)c3F)n2)cc1OC	22.0%	-24.6	-0.6%	-1.4%	-56.3*	0.2%
31	Oc1ccc(/C=N/NC(=S)Nc2cccnc2)c(O)c1O	-0.8%	36.8*	1.5%	-2.9%	1.0	?
32	CNC(=S)N/N=C/c1ccccc1Cl	-6.7%	0.6	0.4%	-1.7%	-5.0	-0.5%
33	S=C(N/N=C/c1ccccc1Cl)Nc1ccccc1	-1.3%	-34.2	-4.1%	-14.6%	-63.6*	0.4%
34	S=C(N/N=C/c1cccc2ccccc12)Nc1cccc(Cl)c1	-1.6%	-11.9	-0.3%	-6.2%	-53.8*	1.5%
35	Oc1cccc(/C=N/NC(=S)Nc2cccnc2)c1O	-22.7%	25.0	-0.7%	1.7%	46.0	?
36	O=C(O)CCCNc1cc(N2CCN(C(=O)c3ccco3)CC2)c2noc3c2c1C(=O)c1ccccc1-3	?	6.2	?	35.5µM*	3.3	?
37	CCOC(=O)N1CCN(c2cc(NCCC(=O)O)c3c4c(onc24)-c2ccccc2C3=O)CC1	?	-6.5	?	?	-76.8*	?
38	O=C1c2ccccc2-c2onc3c(N4CCN(CCO)CC4)cc(N4CCN(C(=O)c5ccco5)CC4)c1c23	12.7%	-10.0	?	-16.3%	-4.9	36.6µM*
39	CN(Cc1ccccc1)S(=O)(=O)c1cc(Br)cc2c1N(C(=O)C1CC1)CC2	/	-1.0	/	/	/	/
40	Cc1ccc(NC(=O)CSc2nnc(-c3ccco3)c(-c3ccco3)n2)cc1	0.5%	-0.9	-11.0%	-10.7%	-59.6*	?

# Gathered by group, the compounds so far containing bromine
nr	Molecule	Rango dissoc inh	D3 ag	TSG101-PTAP inh	Mm-Cpn inhibitor	D3 antag	Rango-impB inh
16	Cc1nc(NC(=O)c2ccc(Br)s2)sc1C(=O)N(C)C	1.8%	2.6	/	-7.5%	-68.8*	0.1%
22	O=C(N/N=C/c1ccccc1)c1[nH]c2ccc(Br)cc2c1-c1ccccc1	0.0%	-18.8	0.4%	-2.1%	-89.0*	0.6%
28	CCCCSc1nnc2c(n1)OC(c1ccc(Br)s1)N(C(C)=O)c1ccccc1-2 (stereo not given)	/	4.3	/	/	/	/
39	CN(Cc1ccccc1)S(=O)(=O)c1cc(Br)cc2c1N(C(=O)C1CC1)CC2	/	-1.0	/	/	/	/

# Further entries
nr	Molecule	Rango dissoc inh	D3 ag	TSG101-PTAP inh	Mm-Cpn inhibitor	D3 antag	Rango-impB inh
41	CCOC(=O)c1c(NC(C)=O)sc2c1CCC(C=NCCCN(CC)CC)=C2Sc1ccccc1	?	1.8	-3.9%	/	-66.0*	?
42	CCOC(=O)c1c(NC(C)=O)sc2c(OCCN(CC)CC)c(Br)ccc12	4.5%	5.3	-3.9%	1.0%	-20.8	-2.3%
43	O=S(=O)(/N=C(/Nc1cc(N2CCOCC2)ncn1)c1ccccc1)c1ccccc1	9.2%	4.9	-0.1%	0.3%	2.1	-0.2%
44	COc1cc(NC(=NS(=O)(=O)c2ccccc2)c2ccccc2)ncn1	-0.2%	-30.2	0.8%	/	-99.7*	2.4%
45	CC(C)(C)OC(=O)N1CCCC(C(=O)Nc2ccc(C(=O)N3CCCC3)cc2)C1 (stereo not given)	4.5%	19.2	-4.9%	-3.0%	24.7	0.8%
46	COc1ccc(NC(=O)CCCNC(=O)Cn2cnc3sc(C)c(C)c3c2=O)cc1Cl	-1.7%	-1.6	-3.8%	1.2%	8.7	?

# Bioassay records: PubChem, National Center for Advancing Translational Sciences (NCATS)
